Test results as given in patent publication US10709764B2, “Use of compounds with thrombopoietic activity to promote bone growth and healing” (Osteofuse, Inc., priority 2010, dated 2020).

Tested on: critical sized femoral defect
Assay: Mouse critical sized femoral defect with scaffold, x-ray follow-up
Assay type: in vivo, C57BL/6 male mice
Settings: 2 weeks postoperatively; TPO 1 μg, BMP-2 4 μg in scaffold
Source text: While it is thought that BMP-2 works by activating osteoblasts, successful fracture repair requires remodeling and thus requires elevated osteoclast activity as well. Therefore, isolated increases in osteoblastic activity without up-regulation of osteoclastic remodeling may increase the incidence of heterotopic bone which has been reported as a complication with BMP treatment. […] A critical sized femoral defect was created in the right femur of ten-week old C57BL/6 male mice. Our scaffold was inserted into the defect site. There were 3 groups: untreated controls (n=7), TPO treated scaffolds (1 μg, n=8), and BMP-2 treated scaffolds (4 μg, n=5). […] Referring now to FIG. 6, a critical sized femoral defect was created in the right femur of ten week old C57BL/6 male mice. A scaffold was inserted into the defect site. There were 3 groups untreated controls (n=7), TPO treated scaffolds (1 μg, n=8), and BMP-2 treated scaffolds (4 μg, n=5).

B1: bone morphogenetic protein-2 (protein, UniProt P12643 283-396, looked up)
Bone morphogenetic protein 2: QAKHKQRKRLKSSCKRHPLYVDFSDVGWNDWIVAPPGYHAFYCHGECPFPLADHLNSTNHAIVQTLVNSVNSKIPKACCVPTELSAISMLYLDENEKVVLKNYQDMVVEGCGCR
bridging callus formation (x-ray): bridging callus formation by 2 weeks
